Only some compounds are listed: those with a hit (about 2.3% of all), similar ones and a draw of the others.
UUG fidelity: modulators of start codon recognition fidelity in yeast; AID 602363; activity score, % at 18.7 µM; S. cerevisiae UUG-firefly luciferase reporter, luminescence/redox ratio; actives 0.13% (n = 350,000);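 active = replicate mean at a twofold rise or more, about +100% in these data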;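 note: firefly luciferase made from a UUG start codon reports start codon fidelity; reporter light over untreated wells divided by growth signal over untreated wells; some hits fall short of that in this replicate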
MC4R barr agon: activates human MC4R beta-arrestin recruitment | 360,000 tested, 0.98% active | activation, % at 8.9 µM | U2OS MC4R beta-arrestin complementation, luminescence; percent of melanotan II response, DMSO zero | P32245;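 active = activation above a per-plate cutoff, the mean activation of sample wells on that plate plus 3 SD, cut at about 8% in these data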
ASAP1 GAP inh: ASAP1 ArfGAP inhibition; ASAP1-stimulated ARF1 GTP hydrolysis, GDP FP detection; 360,000 tested, 0.19% active; inhibition, % at 16.5 µM; in the data active = inhibition above about 25%
ARFGAP1 inhibitor: rat ARFGAP1 inhibition. inhibition, % at 16.5 µM. Arfgap1-stimulated ARF1 GTP hydrolysis, GDP FP detection. 360,000 tested, 0.26% active;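 active = inhibition above a per-plate limit, mean inhibition of low control wells plus 3 SD, cut at about 25% in these data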
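Material – truncated rat Arfgap1 GAP domain · Buffer or medium – HEPES-based buffer, pH 7.5 · Reagent – human ARF1(Δ1-17)-GTP substrate · Dosing – 16.5 µM single point, 1.26% DMSO · Schedule – GTP hydrolysis reaction 2 h at 25 °C · Technique – GDP detection by fluorescence polarization · Benchmarks – No-Arfgap1 wells (100%) versus DMSO full-reaction wells (0%) · Repeats – single replicate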
NRP1-CendR mod: NRP-1/CendR interaction modulation | AID 602438 | inhibition, % at 25 µM | 360,000 tested, 0.85% active | FAM-RPARPAR peptide binding to NRP-1, fluorescence polarization | O14786;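 active = inhibition or corrected inhibition above about 18%, plus a signal ratio from 0.5 to 1.5, limit read from the data, passing the limit was not always enough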
MC4R antag cAMP: human MC4R antagonism in cAMP assay. P32245. MC4R-expressing cells, MTII-stimulated cAMP, LANCE TR-FRET. inhibition, % at 6.5 µM. 360,000 tested, 0.48% active;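 active = inhibition above its plate's cutoff, the mean of tested wells on that plate plus 3 SD, cut at about 29% in these data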
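Assay system: human MC4R-expressing U2OS cells; reagent: Melanotan II stimulation of cells; dosing: 6.5 µM single dose; timing: compound 30 min, challenge 1 h, detection 1 h; signal: TR-FRET cAMP assay; replicates: one well per compound, no replicates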
MC4R barr ag: human MC4R beta-arrestin agonism confirmation; shares compounds with MC4R barr agon; U2OS MC4R beta-arrestin recruitment, luminescence; scaled DMSO 0%, Melanotan II 100%; activation, % at 8.9 µM; 2,400 tested, 31% active; AID 602192;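 active = mean activation across replicates above the hit cutoff set in the earlier primary screen, cut at about 8% in these data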
MOR-DOR barr ag: activates mu-delta opioid heterodimer, MC4R agonist counter-screen | shares compounds with MC4R barr agon | U2OS PathHunter beta-arrestin, beta-gal luminescence; percent of deltorphin B response, DMSO zero | activation, % at 9.2 µM | 2,400 tested, 5.8% active;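 active = mean activation across replicates exceeds the hit threshold derived in the earlier primary screen, cut at about 18% in these data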
Numbers stand for hits.

What do the screens show for `CC(=O)c1cccc(NC(=O)CNC(=O)c2sc3ccccc3c2Cl)c1`?
UUG fidelity: inactive; MC4R barr agon: 19; ASAP1 GAP inh: inactive; ARFGAP1 inhibitor: inactive; NRP1-CendR mod: inactive; MC4R antag cAMP: inactive; MC4R barr ag: 24; MOR-DOR barr ag: 18

Results for Cc1cccc(NC(=O)CNC(=O)c2sc3ccccc3c2Cl)n1 ?
UUG fidelity: inactive; MC4R barr agon: 11; ASAP1 GAP inh: inactive; ARFGAP1 inhibitor: inactive; NRP1-CendR mod: inactive; MC4R antag cAMP: inactive; MC4R barr ag: inactive; MOR-DOR barr ag: inactive

What do the screens show for `Cc1nn(Cc2c(Cl)cccc2Cl)c(C)c1NC(=O)c1sc2ccccc2c1Cl`?
UUG fidelity: inactive; MC4R barr agon: 45; ASAP1 GAP inh: inactive; ARFGAP1 inhibitor: inactive; NRP1-CendR mod: inactive; MC4R antag cAMP: inactive; MC4R barr ag: inactive; MOR-DOR barr ag: inactive

Results for Cc1ccccc1-c1cnc2c(c1)C(=O)N([C@H](C)CO)C[C@@H](C)[C@H](CN(C)C(=O)c1ccc(F)cc1)O2 ?
UUG fidelity: inactive

Results for C[C@@H]1CCCCO[C@H](CN(C)Cc2ccccc2)[C@@H](C)CN([C@@H](C)CO)C(=O)c2cc(NC(=O)NC3CCCCC3)ccc2O1 ?
UUG fidelity: inactive

What do the screens show for `O=C(C[C@H]1C[C@H]2c3cc(NC(=O)C4CCC4)ccc3O[C@H]2[C@@H](CO)O1)NCC1CC1`?
UUG fidelity: inactive

Results for COc1ccc(-c2cc(NC=O)c3ncc(-c4cccc(OC)c4)n3c2)cc1 ?
UUG fidelity: inactive; MC4R barr agon: inactive; ASAP1 GAP inh: inactive; ARFGAP1 inhibitor: inactive; NRP1-CendR mod: inactive; MC4R antag cAMP: inactive

What do the screens show for `COc1cccc(-c2cnc3c(NC=O)cc(-c4ccc(OC)cc4OC)cn23)c1`?
UUG fidelity: inactive; MC4R barr agon: 14; ASAP1 GAP inh: inactive; ARFGAP1 inhibitor: inactive; NRP1-CendR mod: inactive; MC4R antag cAMP: inactive; MC4R barr ag: 12; MOR-DOR barr ag: inactive

Results for COc1ccc(-c2cc(NC=O)c3ncc(-c4cnn(C)c4)n3c2)cc1 ?
UUG fidelity: inactive; MC4R barr agon: 14; ASAP1 GAP inh: inactive; ARFGAP1 inhibitor: inactive; NRP1-CendR mod: inactive; MC4R antag cAMP: inactive; MC4R barr ag: 9.6; MOR-DOR barr ag: inactive

Results for COc1ccc(-c2cc(NC=O)c3ncc(-c4cc(OC)c(OC)c(OC)c4)n3c2)cc1 ?
UUG fidelity: inactive; MC4R barr agon: inactive; ASAP1 GAP inh: inactive; ARFGAP1 inhibitor: inactive; NRP1-CendR mod: inactive; MC4R antag cAMP: inactive

How did COc1cccc(-c2cnc3c(NC=O)cc(-c4cc(OC)c(OC)c(OC)c4)cn23)c1 do in these assays?
UUG fidelity: inactive; MC4R barr agon: 29; ASAP1 GAP inh: inactive; ARFGAP1 inhibitor: inactive; NRP1-CendR mod: inactive; MC4R antag cAMP: inactive; MC4R barr ag: 26; MOR-DOR barr ag: inactive

What do the screens show for `COc1cccc(-c2cc(NC=O)c3ncc(-c4ccc(OC)c(OC)c4)n3c2)c1`?
UUG fidelity: inactive; MC4R barr agon: inactive; ASAP1 GAP inh: inactive; ARFGAP1 inhibitor: inactive; NRP1-CendR mod: inactive; MC4R antag cAMP: inactive

What do the screens show for `COc1cccc(-c2cnc3c(NC=O)cc(-c4ccc(N(C)C)cc4)cn23)c1`?
UUG fidelity: inactive; MC4R barr agon: 15; ASAP1 GAP inh: inactive; ARFGAP1 inhibitor: inactive; NRP1-CendR mod: inactive; MC4R antag cAMP: inactive; MC4R barr ag: inactive; MOR-DOR barr ag: inactive

What do the screens show for `C[C@@H]1CCCCO[C@H](CN(C)Cc2ccc(C(=O)O)cc2)[C@@H](C)CN([C@H](C)CO)C(=O)c2cc(NS(=O)(=O)c3ccccc3)ccc2O1`?
UUG fidelity: inactive

What do the screens show for `Cn1nc2c3cc(F)ccc3n(Cc3ccc(F)cc3)cc-2c1=O`?
MC4R barr agon: inactive; ASAP1 GAP inh: inactive; ARFGAP1 inhibitor: inactive; NRP1-CendR mod: inactive; MC4R antag cAMP: inactive

What do the screens show for `Cc1cccc(Cn2cc3c(=O)n(Cc4cccc(F)c4)nc-3c3ccccc32)c1`?
UUG fidelity: inactive; MC4R barr agon: 17; ASAP1 GAP inh: inactive; ARFGAP1 inhibitor: inactive; NRP1-CendR mod: inactive; MC4R antag cAMP: inactive; MC4R barr ag: inactive; MOR-DOR barr ag: inactive

What do the screens show for `COc1ccc2nc(C)cc(SCC(=O)N/N=C/c3cccc4ccccc34)c2c1`?
UUG fidelity: inactive; MC4R barr agon: 19; ASAP1 GAP inh: inactive; ARFGAP1 inhibitor: inactive; NRP1-CendR mod: inactive; MC4R antag cAMP: inactive; MC4R barr ag: inactive; MOR-DOR barr ag: inactive

What do the screens show for `COc1ccc2nc(C)cc(SCC(=O)N/N=C/c3ccc(O)c(O)c3)c2c1`?
MC4R barr agon: inactive; ASAP1 GAP inh: inactive; ARFGAP1 inhibitor: inactive; NRP1-CendR mod: inactive; MC4R antag cAMP: inactive

How did CCC1S/C(=N/N=C/c2cccs2)NC1=O (stereo unspecified) do in these assays?
UUG fidelity: inactive; MC4R barr agon: inactive; ASAP1 GAP inh: inactive; ARFGAP1 inhibitor: inactive; NRP1-CendR mod: inactive; MC4R antag cAMP: inactive

How did O=C1N/C(=N\N=C\c2cccs2)SC1Cc1ccc(Cl)cc1 (stereo unspecified) do in these assays?
UUG fidelity: inactive; MC4R barr agon: 15; ASAP1 GAP inh: inactive; ARFGAP1 inhibitor: inactive; NRP1-CendR mod: inactive; MC4R antag cAMP: inactive; MC4R barr ag: inactive; MOR-DOR barr ag: inactive

What do the screens show for `O=C1N/C(=N\N=C\c2cccs2)SC1Cc1cccc(Cl)c1` (stereo unspecified)?
MC4R barr agon: 12; ASAP1 GAP inh: inactive; ARFGAP1 inhibitor: inactive; NRP1-CendR mod: inactive; MC4R antag cAMP: inactive; MC4R barr ag: inactive; MOR-DOR barr ag: inactive

How did C[C@@H]1CCCCO[C@@H](CN(C)C(=O)Nc2ccc(F)cc2)[C@@H](C)CN([C@H](C)CO)C(=O)c2cc(NS(C)(=O)=O)ccc2O1 do in these assays?
UUG fidelity: inactive

How did S=c1[nH]nc(-c2ccccc2)n1/N=C/c1ccc(-c2ccccc2Cl)o1 do in these assays?
UUG fidelity: inactive; MC4R barr agon: 12; ASAP1 GAP inh: inactive; ARFGAP1 inhibitor: inactive; NRP1-CendR mod: inactive; MC4R antag cAMP: inactive; MC4R barr ag: inactive; MOR-DOR barr ag: inactive

Results for c1ccc(-c2onc(-c3ccco3)c2-c2ccc3c(c2)OCO3)cc1 ?
UUG fidelity: inactive; MC4R barr agon: 10.0; ASAP1 GAP inh: inactive; ARFGAP1 inhibitor: inactive; NRP1-CendR mod: inactive; MC4R antag cAMP: inactive; MC4R barr ag: inactive; MOR-DOR barr ag: inactive

How did O=C(O)c1cc(-c2ccc(-c3c(-c4ccc5c(c4)OCO5)noc3-c3ccsc3)cc2)nc2ccccc12 do in these assays?
UUG fidelity: inactive; MC4R barr agon: inactive; ASAP1 GAP inh: inactive; ARFGAP1 inhibitor: inactive; NRP1-CendR mod: inactive; MC4R antag cAMP: inactive

Compound activity as filed in PubChem BioAssay.
